# Assay outcomes: PubChem, National Center for Advancing Translational Sciences (NCATS)
# Sfp PPTase inh: Sfp phosphopantetheinyl transferase inhibition. Biochemical Sfp PPTase activity, qHTS. Potency, µM, usual class: inhibitors. actives 3.5% (n = 310,000);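 further: the enzyme is Sfp with the accession as filed and its product quenches rhodamine fluorescence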
#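 Sfp 15 nM + cpd, 15 min RT; start w/ rhodamine-CoA 5 uM, BHQ-2-YbbR 12.5 uM (final); 50 mM Hepes pH 7.6, 10 mM MgCl2, 0.01% NP-40, 0.01% BSA; read 525/598 nm at 0 and 30 min.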
# G9a block: G9a (human) methyltransferase inhibition. AID 504332. Q96KQ7. G9a H3K9 monomethylation, AlphaScreen, 2 h. Potency, µM (series often up to 102 µM), actives largely listed as inhibitors. actives 8.8% (n = 350,000); further: nearly all actives have a fitted effect of over 75% in size
#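 Chemiluminescent proximity detection of H3K9 monomethylation, read after 10 min bead incubation in the dark. Reaction: 20 nM G9a, 500 nM biotin-H3K9 peptide, 20 uM SAM cofactor, 2 h, room temperature, following 15 min enzyme-compound preincubation.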
# miR-21 reporter: raises the signal of a miR-21 reporter | HeLa miR-21 FLuc reporter, luciferase, 48 h | Potency, µM (highest dose often 38.3 µM) | 340,000 tested, under 10 active | AID 2288; active = well fitted rising curve with a large enough effect; inconclusive = small, poorly fitted or top-dose-only effect; inactive = no such curve, though single readings can be large or run the other way;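 note: miR-21 action dims this reporter so a rising signal means less miR-21 action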
#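 HeLa miR-21-FLuc reporter line, endogenous miR-21; 2000 cells/well in DMEM/10% FBS; compound titration up to ~40uM final, 48 h, 37 degree Celsius; luciferase detection reagent, 15 min lysis, CCD luminescence.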
# ALDH1A1 inh: inhibitors of human aldehyde dehydrogenase 1A1. Purified ALDH1A1, NADH fluorescence, propionaldehyde substrate. Potency, µM (series often up to 75.3 µM), most hits filed as inhibitors. actives 7.3% (n = 220,000). AID 1030; active means well fitted inhibition curve with a large enough effect, not every such curve was filed as active; inconclusive means small, poorly fitted or top-dose-only effect, or another doubt; inactive means no such curve, though single readings can be large or run the other way
# JMJD2E inh: inhibitors of human JMJD2E histone demethylase | AID 2147 | B2RXH2 | JMJD2E catalytic domain, FDH-coupled NADH fluorescence (FDH is formaldehyde dehydrogenase) | actives 1.6% (n = 230,000) | Potency, µM (highest dose often 57.1 µM), usual class: inhibitors; active means well fitted inhibition curve with a large enough effect, not every such curve was filed as active; inconclusive means small, poorly fitted or top-dose-only effect, or another doubt; inactive means no such curve, though single readings can be large or run the other way; further: nearly all actives have a fitted effect of over 50% in size
# Lamin A splicing: changes lamin A minigene splicing in HeLa cells | HeLa LMNA splicing GFP/RFP minigene ratio, 48 h | Potency, µM (highest dose often 46.1 µM), most hits filed as inhibitors | actives 0.01% (n = 200,000) | AID 1487; active means well fitted inhibition curve with a large enough effect in the signal ratio, with a control signal flat, not every such curve was filed as active; inconclusive means small, poorly fitted or top-dose-only effect, or effect the other way, or a change in a side signal; the % refers to the signal ratio
#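 S3 HeLa stable clones carrying a lamin A-EGFP splicing minigene plus DsRed2 were seeded at 600 cells/well in Opti-MEM with 2% FBS, pin-dosed and incubated 48 h at 37°C. Acumen cytometry (488 nm) gave the GFP/RFP total-intensity ratio.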
# Numbers stand for hits; – = inactive; ? = inconclusive; · = no result; [ ] = dose if it differs, or a comment. A selection: hits, their analogues and other compounds. The true share with any hit is near 13%. Unless noted, the call rests on the fitted dose curve; in most records, active means well fitted curve in the direction sought with a large enough effect; inconclusive means small, poorly fitted or top-dose-only effect, or another doubt; inactive means no such curve, though single readings can be large; an effect the other way counts as inactive or inconclusive.
SMILES,Sfp PPTase inh,G9a block,miR-21 reporter,ALDH1A1 inh,JMJD2E inh,Lamin A splicing
O=C(NCC(c1ccco1)N1CCCCC1)c1ccc2c(c1)S(=O)(=O)c1ccccc1C2=O (stereo not given),–,40µM,–,13µM,?,·
COc1ccc(S(=O)(=O)N2CCN(C)CC2)cc1NC(=O)c1ccccc1,–,–,–,·,·,·
Cc1nc2ccn(Cc3ccccc3)c(=O)c2cc1C(=O)NCc1ccccc1F,·,–,–,·,·,?
Cc1ccc(NC(=O)Cn2c(=O)n(CCCCC(=O)NCCc3ccccc3)c(=O)c3ccccc32)c(C)c1,·,–,–,·,·,·
Cc1ccc(C)c(NC(=O)CSc2nc(-c3ccccc3)cc(=O)[nH]2)c1,·,–,–,·,·,–
COC(=O)CCC(NC(=O)c1cc(-c2ccc3c(c2)OCCO3)oc1C)C(=O)OC (stereo not given),35µM,?,–,20µM,–,–
COC(=O)C(Cc1c[nH]c2ccccc12)NC(=O)c1cc(-c2ccc(OC)c(OC)c2)oc1C (stereo not given),32µM,50µM,–,28µM,–,–
Cc1oc(-c2ccc3c(c2)OCCO3)cc1C(=O)NC(Cc1ccccc1)C(=O)O (stereo not given),22µM,35µM,–,?,–,·
Cc1oc(C(C)(C)C)cc1C(=O)NC(Cc1ccccc1)C(=O)O (stereo not given),–,–,–,–,–,·
NC(=O)c1ccc2nc(-c3ccc(Oc4ccc(Cl)cc4)cc3)[nH]c2c1,–,·,·,·,·,·
COc1cc(NC(=O)CCc2c(C)nc3nc(-c4cc(OC)cc(OC)c4)nn3c2C)cc(OC)c1,·,–,–,·,·,·
CN1Cc2c(C(=O)OC(C)(C)C)ncn2-c2ccsc2C1=O,–,·,·,11µM,–,·
COC(=O)C(N)Cc1ccc(OC)c([N+](=O)[O-])c1 (stereo not given),–,·,–,?,–,·
COc1coc(C(O)C[N+](=O)[O-])cc1=O (stereo not given),32µM,?,–,?,?,?
COc1ccccc1CNc1cc(-c2ccccc2)nc2nncn12,·,–,?,·,·,·
CC1(C)CC2(CC(c3ccccc3)c3ccc(O)cc3O2)NC(=S)N1 (stereo not given),–,·,–,–,–,–
COc1ccc(CNC(=O)c2nc(Cn3nc(C)c(Br)c3C)no2)cc1OC,·,–,–,·,·,·
COCCNC(=S)N/N=C1\CC(C)CC(C)(C)C1 (stereo not given),50µM,50µM,–,8.9µM,?,?
COCCNC(=S)NN=C1CCCCCC1,56µM,–,–,?,–,·
CC(=O)NN=C1CCC(c2ccccc2)CC1 (stereo not given),–,–,–,–,–,–
CCOC(=O)N/N=C1\CC(C)CC(C)(C)C1 (stereo not given),–,–,–,–,–,–
C=CCNC(=S)NN=C1CCC(c2ccccc2)CC1 (stereo not given),–,13µM,–,·,·,·
COCCNC(=S)NN=C1CCC(c2ccccc2)CC1 (stereo not given),–,8.9µM,–,?,–,·
COc1ccc(S(=O)(=O)CCC(=O)Nc2cc(C)ccc2OC)cc1,50µM,28µM,–,25µM,–,·
COc1ccccc1NC(=O)CCS(=O)(=O)c1ccccc1,–,–,–,–,–,–
SMILES,Sfp PPTase inh,G9a block,miR-21 reporter,ALDH1A1 inh,JMJD2E inh,Lamin A splicing
COc1ccc(CCCC(=O)Nc2cc(C)ccc2OC)cc1,–,79µM,–,·,·,·
O=C(Nc1ccc2c(c1)CCCN2C(=O)c1cccs1)c1cccc(C(F)(F)F)c1,·,–[12.7 µM],–,·,·,?
Cc1cccc(N2CCN(C(c3ccc(F)cc3)c3nnc(-c4ccccc4)o3)CC2)c1C (stereo not given),·,?,–,·,·,·
O=c1c2c(-c3cccs3)csc2ncn1/N=C/c1ccc(OC(F)F)cc1,–,–,–,–,?,–
O=C(O)COc1ccc(/C=N/n2cnc3scc(-c4cccs4)c3c2=O)cc1,–,–,–,7.1µM,–,–
CCCN(CC(=O)Nc1cc(Cl)ccc1Cl)C(=O)c1ccccc1SCC(=O)N1CCCC1,·,–,·,·,·,·
O=C(NCc1ccco1)C(c1ccco1)N(Cc1cccs1)C(=O)Cn1nnc2ccccc21 (stereo not given),–,?,–,14µM,–,–
Cc1ccc(-c2nnn(CC(=O)N(Cc3ccccc3)C(C(=O)NC3CCCC3)c3ccncc3)n2)o1 (stereo not given),–,22µM,–,?,–,–
O=C(NCC1CCCO1)C(c1cccs1)N(Cc1cccs1)C(=O)Cn1nnc(-c2cccs2)n1 (stereo not given),–,–,–,8.9µM,–,–
O=C(NC1CCCCC1)C(c1ccncc1)N(C(=O)Cn1nnc(-c2cccs2)n1)C1CCCC1 (stereo not given),–,22µM,–,–,?,–
O=C(NCc1ccco1)C(c1cccs1)N(Cc1ccccc1)C(=O)Cn1nnc2ccccc21 (stereo not given),–,–,–,–,–,?
O=C(Nc1c(C(=O)O)[nH]c2ccc(F)cc12)c1cccc(C(F)(F)F)c1,–,?,–,·,–,·
O=C(NC1C/C(=N/O)c2cc3c(cc21)OCO3)C(F)(F)F (stereo not given),–,–,–,–,–,·
COc1ccccc1CC(=N)N1C[C@@H]2C(=O)CCC(c3ccccc3)(c3ccccc3)[C@@H]2C1,–,·,·,–,–,·
Cc1ccc(C(=O)Nc2nnc(S(=O)(=O)N3CCc4ccccc43)s2)cc1,·,–,–,·,·,?
Cc1ccc(-c2nnn(CC(=O)N(Cc3cccs3)C(C(=O)NC3CCCC3)c3ccco3)n2)o1 (stereo not given),–,?,–,22µM,–,–
Cc1ccc(-c2nnn(CC(=O)N(Cc3cccs3)C(C(=O)NC3CCCCC3)c3ccco3)n2)o1 (stereo not given),–,–,–,–,–,–
CN(C)S(=O)(=O)c1cccc(COc2ncnc3c(Cl)cc(Cl)cc23)c1,–,–,–,·,·,·
C=C(C)COc1ccc(-c2nc(N)ncc2-c2ccc(Cl)cc2)c(O)c1,–,–,–,·,·,·
CC(C)=C1C(=O)NN(c2ccc(C)c(Cl)c2)C1=O,–,8.9µM,–,–,–,–
COc1cc(/C=N/NC(=O)CCOc2ccccc2C)cc(Br)c1O,–,50µM,–,–,?,?
COc1ccc(/C=N/NC(=O)CCOc2ccccc2C)cc1OC,–,?,–,?,–,?
CC(C)[C@H](NC(=O)[C@@H]1Cc2ccccc2CN1C(=O)OC(C)(C)C)C(=O)NCc1ccco1,–,–,–,·,·,·
Cc1ccc(-n2nnnc2CNC(=O)c2ccc3c(c2)OCO3)cc1C,–,–,–,·,·,·
O=C1c2c(O)cc(O)cc2O[C@H](c2ccc(O)c(O)c2)[C@@H]1O,–,–,–,·,14µM,·
